In the series the test system is tomato plants. The arrangement: species or system Solanum lycopersicum. The settings on record: in vivo. The protocol:
Plant growth. […] The sterilized seeds were germinated in petri-dish on water-soaked filter paper under dark for 10 days. Afterwards, the seedlings were transplanted to 100 mL plastic cups. Each seedling was grown hydroponically using 1⁄4 strength Hoagland's solution aerated using air pumps. […] Leaf carbon assimilation rate and chlorophyll fluorescence. Plant leaf carbon assimilation and chlorophyll fluorescence was measured by a Li-Cor Li-6800 portable photosynthesis system. […] Combined heat and excess light stress. The carbon (A-Ci) and light response (A-PAR) curves of treated leaves were measured before stress conditions. […] The carbon and light response curves were measured again and compared with the curve acquired before stress. […] Light adapted ([…]) chlorophyll fluorescent test were also performed before and after stress conditions. The A-Ci curves were analyzed according to previously reported model for C3 plants: […]

The record followed here is patent publication US20230309554A1, “Polymer Carriers for Delivery of Agrochemicals in Crop Plants” (Carnegie Mellon University, priority 2020, published 2023).

For “poly(acrylic acid)-block-poly((2-(methylsulfinyl)ethyl acrylate)-co-(2-(methylthio)ethyl acrylate)) [PAA25-b-P(MSEA75-co-MTEA50)]”, the “Plant toxicity (photosynthetic activity before stress)” value was “did not induce plant toxicity”.
